{"sequences": {"note": "Amino acid sequences for entries named in this document (tags omitted). Residues count along the entry.", "UniProt P25774, 115-331": "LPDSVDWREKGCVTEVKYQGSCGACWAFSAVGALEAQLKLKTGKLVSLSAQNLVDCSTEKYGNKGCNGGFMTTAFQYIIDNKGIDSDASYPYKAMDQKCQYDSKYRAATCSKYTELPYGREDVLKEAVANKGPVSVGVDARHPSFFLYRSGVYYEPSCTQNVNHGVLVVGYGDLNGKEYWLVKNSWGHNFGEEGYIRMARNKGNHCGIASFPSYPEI"}, "source": "patent US8008290B2", "about": "“Compounds” (priority 2009, dated 2011)", "key": {"[1]": {"molecular_target": "T1, Human recombinant cathepsin S (Homo sapiens, UniProt P25774)", "T1 construct": "purchased Merck 219343; host or cells: E. coli", "assay": "In vitro cathepsin Ki inhibition measurement, cathepsin S", "assay_type": "biochemical", "description": "Stock solutions of substrate or inhibitor were made up to 10 mM in 100% dimethylsulfoxide (DMSO) (Rathburns, Glasgow, U.K.) and diluted as appropriately required. In all cases the DMSO concentration in the assays was maintained at less than 1% (vol./vol.). The equilibrium inhibition constants (Ki^ss) for each compound were measured under steady-state conditions monitoring enzyme activity as a function of inhibitor concentration. […] The apparent inhibition constant (Ki) for each compound was determined on the basis that inhibition was reversible and occurred by a pure-competitive mechanism. […] Biophys. […] Curves were fitted by non-linear regression analysis (Prism) using a fixed value for the enzyme concentration."}, "[2]": {"molecular_target": "T2, Human recombinant cathepsin K (Homo sapiens, UniProt P43235)", "T2 sequence (P43235 115-329)": "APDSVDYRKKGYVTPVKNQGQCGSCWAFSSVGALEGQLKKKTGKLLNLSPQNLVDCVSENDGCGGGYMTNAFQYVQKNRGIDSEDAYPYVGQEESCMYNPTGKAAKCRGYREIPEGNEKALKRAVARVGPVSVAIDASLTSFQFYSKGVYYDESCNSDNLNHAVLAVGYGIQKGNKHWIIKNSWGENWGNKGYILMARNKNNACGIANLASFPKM", "assay": "In vitro cathepsin Ki inhibition measurement, cathepsin K", "assay_type": "biochemical", "description": "Stock solutions of substrate or inhibitor were made up to 10 mM in 100% dimethylsulfoxide (DMSO) (Rathburns, Glasgow, U.K.) and diluted as appropriately required. In all cases the DMSO concentration in the assays was maintained at less than 1% (vol./vol.). The equilibrium inhibition constants (Ki^ss) for each compound were measured under steady-state conditions monitoring enzyme activity as a function of inhibitor concentration. […] B. […] The apparent inhibition constant (Ki) for each compound was determined on the basis that inhibition was reversible and occurred by a pure-competitive mechanism. […] F. Trends Biochem. […] Morrison, J. F. Biochim. Biophys. […] Curves were fitted by non-linear regression analysis (Prism) using a fixed value for the enzyme concentration."}, "[3]": {"details": "relative to prior art compound (38)"}}}
{"smiles": "O=C(N[C@H](C(=O)N1CC[C@H]2OCC(=O)[C@H]21)C1CCCCC1)c1ccccc1", "note": "[Compound 1]", "values": [{"measurement": "fold improvement in in vitro potency against human cathepsin S", "setting": "[1]; [3]", "result": 2.5, "unit": "fold"}]}
{"smiles": "O=C(N[C@H](C(=O)N1C[C@H](Cl)[C@H]2OCC(=O)[C@H]21)C1CCCCC1)c1ccccc1", "note": "[EXAMPLE 1, N—((S)-2-((3aS,6S,6aS)-6-chloro-3-oxodihydro-2H-furo[3,2-b]pyrrol-4(5H,6H,6aH)-yl)-1-cyclohexyl-2-oxoethyl)benzamide]", "values": [{"measurement": "fold improvement in in vitro potency against human cathepsin S", "setting": "[1]; relative to Compound 1", "result": 27, "unit": "fold"}, {"measurement": "fold improvement in in vitro potency against human cathepsin S", "setting": "[1]; [3]", "result": 65, "unit": "fold"}, {"measurement": "fold improvement in in vitro potency against human cathepsin K", "setting": "[2]; relative to Compound 1", "result": 8.7, "unit": "fold"}, {"measurement": "fold improvement in in vitro potency against human cathepsin K", "setting": "[2]; [3]", "result": "greater than 114 fold"}]}
